From patent US20150203563A1 come the findings set out here.

Sequences of proteins named here, by UniProt entry; tags and fusion partners are left off. Residues count along the entry.
UniProt P24530, 27-442 limits assumed: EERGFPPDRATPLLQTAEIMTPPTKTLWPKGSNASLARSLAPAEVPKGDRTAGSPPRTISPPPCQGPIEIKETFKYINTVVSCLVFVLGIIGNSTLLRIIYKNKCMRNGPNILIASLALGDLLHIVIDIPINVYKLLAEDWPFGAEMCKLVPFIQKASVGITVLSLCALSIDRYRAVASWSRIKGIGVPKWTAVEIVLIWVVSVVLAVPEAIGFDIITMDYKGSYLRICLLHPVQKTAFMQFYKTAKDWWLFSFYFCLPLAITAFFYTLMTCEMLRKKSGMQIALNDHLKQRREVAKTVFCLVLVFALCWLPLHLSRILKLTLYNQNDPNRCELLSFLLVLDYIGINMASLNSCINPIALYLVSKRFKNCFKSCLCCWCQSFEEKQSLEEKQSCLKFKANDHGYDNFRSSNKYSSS
UniProt P24530, 27-442 C405A limits assumed: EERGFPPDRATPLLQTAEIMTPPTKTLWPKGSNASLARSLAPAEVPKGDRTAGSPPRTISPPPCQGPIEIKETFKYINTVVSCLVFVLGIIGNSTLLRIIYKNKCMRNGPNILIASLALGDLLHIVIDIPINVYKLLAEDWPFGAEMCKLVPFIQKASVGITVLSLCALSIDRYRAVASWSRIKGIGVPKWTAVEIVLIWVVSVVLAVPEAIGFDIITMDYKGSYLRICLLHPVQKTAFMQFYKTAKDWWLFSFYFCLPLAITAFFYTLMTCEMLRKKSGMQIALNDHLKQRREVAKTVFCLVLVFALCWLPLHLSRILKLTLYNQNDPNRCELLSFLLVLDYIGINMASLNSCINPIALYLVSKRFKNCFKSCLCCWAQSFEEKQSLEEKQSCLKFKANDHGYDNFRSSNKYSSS

Test [1] has as its target endothelin-B receptor (ETB), human wild type (human) (UniProt P24530). In words: cell-based or functional assay.
For test [2], the target named is C405A-ETB (mutant ETB with alanine for cysteine at position 405) (human) (UniProt P24530). Briefly: cell-based or functional assay.

Take “endothelin-1 (ET-1) (from UniProt P05305 53-73) (ligand)”: in test [1], the NO2^- (nitrite) generation in HPAECs, ET-1 10 nM, maximum effect at 10 min, against vehicle (µM/µg protein) amounted to 139; the decrease of ET-1-stimulated NO2^- formation after H2O2 (200 µmol/L, 60 min) in COS-7 cells expressing eNOS and WT-ETB was 78%. The substance also had a decrease of ET-1-stimulated nitrite levels after H2O2 (200 µmol/L, 60 min) in COS-7 cells expressing eNOS and C405A-ETB in test [2] of 45%.
